Experimental data taken from article PMC6649693, “Disordered region of H3K9 methyltransferase Clr4 binds the nucleosome and contributes to its activity” (Nucleic Acids Research, 2019).

Target: T1, Clr4_[…] (fission yeast)
T1 construct: source: E. coli Bl21(DE3) pLysS, purified (Ni-NTA, size exclusion chromatography); unlabeled or 15N- / 15N/13C-labeled; not shown: FLAG, C-terminal, kept
Experiment: NMR titration; 2D 1H-15N HSQC at 15°C, 50 μM 15N-labeled Clr4 CD or Clr4 1–191; nucleosome at ratios 1:0.5, 1:1, 1:2, peptide at 1:1 and 1:5; 50 mM phosphate buffer pH 6.8, 150 mM NaCl, 1 mM DTT, 10% D2O
Conditions: both partners purified

B1: [Lys(Me3)9]-Histone H3 ([…])-GGK(Biotin) peptide (peptide)
peptide: not shown
modifications: trimethyl-lysine at 9 (Lys(Me3)9); biotin on the C-terminal lysine (K(Biotin))
notes: C-terminal linker with the biotinylated lysine; also called H3K9me3 peptide; H3K9 peptide; source: bought: Eurogentec (synthetic peptide)
- binding result: binds
